Target: Transient receptor potential cation channel subfamily V member 1 (Rattus norvegicus) (UniProt O35433)
Assay: Agonist-induced 45 [Ca2+] influx relative to 300 nM capsaicin in vanilloid receptor expressing CHO cells

Sequences of proteins named here, by UniProt entry; tags and fusion partners are left off.
UniProt O35433, whole entry: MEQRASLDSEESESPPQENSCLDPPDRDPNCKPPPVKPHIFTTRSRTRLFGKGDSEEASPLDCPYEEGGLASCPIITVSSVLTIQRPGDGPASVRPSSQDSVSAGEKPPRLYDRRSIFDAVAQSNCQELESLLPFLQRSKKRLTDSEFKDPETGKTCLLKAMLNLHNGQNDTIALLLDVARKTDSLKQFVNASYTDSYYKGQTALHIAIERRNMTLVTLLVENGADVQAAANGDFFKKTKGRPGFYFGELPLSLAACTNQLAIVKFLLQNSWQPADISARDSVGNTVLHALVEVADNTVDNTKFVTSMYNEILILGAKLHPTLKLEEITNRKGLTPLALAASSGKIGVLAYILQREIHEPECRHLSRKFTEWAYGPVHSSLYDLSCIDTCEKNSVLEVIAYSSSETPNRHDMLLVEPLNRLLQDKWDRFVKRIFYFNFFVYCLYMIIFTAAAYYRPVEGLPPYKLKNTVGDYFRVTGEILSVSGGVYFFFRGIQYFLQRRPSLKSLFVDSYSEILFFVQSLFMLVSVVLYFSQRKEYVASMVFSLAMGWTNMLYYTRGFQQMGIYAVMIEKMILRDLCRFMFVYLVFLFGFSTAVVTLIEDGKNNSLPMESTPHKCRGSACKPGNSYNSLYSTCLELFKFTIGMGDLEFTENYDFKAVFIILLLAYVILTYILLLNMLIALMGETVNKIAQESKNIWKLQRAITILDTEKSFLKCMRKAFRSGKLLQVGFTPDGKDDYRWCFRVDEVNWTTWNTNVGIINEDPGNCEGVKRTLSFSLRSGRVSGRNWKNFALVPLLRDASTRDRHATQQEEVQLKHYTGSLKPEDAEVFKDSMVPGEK

agonist efficacy [%]	Compound
40	COc1cc(CC(=O)NCC(COC(=O)C(C)(C)C)Cc2ccc(C)c(C)c2)ccc1NS(C)(=O)=O (centres undefined)
50	COc1cc(CO/C(S)=N/CC(COC(=O)C(C)(C)C)Cc2ccc(C)c(C)c2)ccc1NS(C)(=O)=O (centres undefined)
24	Cc1ccc(CC(CNC(=S)N(O)Cc2ccc(NS(C)(=O)=O)c(F)c2)COC(=O)C(C)(C)C)cc1C (centres undefined)
20	Cc1ccc(CC(COC(=O)C(C)(C)C)CN(O)/C(S)=N/Cc2ccc(NS(C)(=O)=O)cc2F)cc1C (centres undefined)

Reference: ChEMBL document CHEMBL1149228, “Analysis of structure-activity relationships for the 'B-region' of N-(3-acyloxy-2-benzylpropyl)-N(')-[4-(methylsulfonylamino)benzyl]thiourea analogues as vanilloid receptor antagonists: discovery of an N-hydroxythiourea analogue with potent analgesic activity” (Bioorg Med Chem Lett, 2004)
